Values of other authors in patent US20240059655A1, “HETEROCYCLIC G-PROTEIN-COUPLED RECEPTOR 52 (GPR52) AGONISTS” (Board of Regents, The University of Texas System, priority 2020, published 2024).

Amino acid sequences for entries named in this document (tags omitted).
UniProt Q9Y2T5, whole entry: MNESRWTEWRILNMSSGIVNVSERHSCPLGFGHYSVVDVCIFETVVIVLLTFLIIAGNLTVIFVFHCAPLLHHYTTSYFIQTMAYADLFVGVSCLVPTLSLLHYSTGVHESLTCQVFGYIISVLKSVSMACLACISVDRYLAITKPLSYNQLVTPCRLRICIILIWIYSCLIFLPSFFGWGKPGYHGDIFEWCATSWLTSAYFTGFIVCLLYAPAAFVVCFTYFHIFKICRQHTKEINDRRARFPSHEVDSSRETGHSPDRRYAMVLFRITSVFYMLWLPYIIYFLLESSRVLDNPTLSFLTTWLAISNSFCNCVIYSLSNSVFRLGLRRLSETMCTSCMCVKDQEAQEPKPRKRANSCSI

Tests used:
[1] = reported in the literature; cited from earlier work
[2] = system: rodent; settings: dose of 3 mg/kg; cited from earlier work
[3] = biological target: GPR52 (Homo sapiens (Human), UniProt Q9Y2T5); settings: reported in the literature; cited from earlier work

| Compound | bioavailability (F) [1] [%] | methamphetamine-induced hyperactivity [2] | GPR52 Emax [3] [%] |
| --- | --- | --- | --- |
| COCCNC(=O)c1cccc(-c2cccc3cc(Cc4cc(F)cc(Cl)c4)sc23)c1 | 73 | significantly inhibited | – |
| Cc1nn(-c2cccc3cc(Cc4cc(F)cc(Cl)c4)sc23)c(CO)c1C(=O)NCCO | – | – | 103 |
